## Apparent affinities of Ab-14 variants for a coronavirus HR2 peptide

Source: Engelhart et al. 2022 (doi:10.1038/s41597-022-01779-4), MIT Lincoln Laboratory and A-Alpha Bio; data file from the FLAb repository.

Target peptide (SARS-CoV-2 spike, HR2 region): PDVDLGDISGINAS

Ab-14 is the parent antibody, in scFv form: VH, then the linker GGGGSGGGGSGGGGS, then VL. The heavy chain is unchanged in all variants.
VH: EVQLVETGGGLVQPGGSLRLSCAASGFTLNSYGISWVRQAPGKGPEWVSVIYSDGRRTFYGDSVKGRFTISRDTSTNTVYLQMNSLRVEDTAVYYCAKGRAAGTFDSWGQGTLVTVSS
VL: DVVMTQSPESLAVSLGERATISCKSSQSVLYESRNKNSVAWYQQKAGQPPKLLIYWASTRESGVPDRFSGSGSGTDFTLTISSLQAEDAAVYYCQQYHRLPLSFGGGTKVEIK

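Phage display of a naive human antibody library on the peptide gave the parent. Variants in AAYL50 differ from the parent at up to three CDR positions; double and triple changes were sampled at random. The assay is AlphaSeq: two haploid yeast populations carry antibody and antigen on their surface. After mating in shaken culture at 30 °C for 16 h, diploids were selected and their barcode pairs sequenced. Scores were corrected for input abundance and mapped to Kd with protein pairs of known affinity run in the same pool. Each pool was mated in three replicate cultures.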

The parent's light chain CDRs are KSSQSVLYESRNKNSVA, WASTRES, QQYHRLPLS; each variant's own CDRs replace them letter for letter. This list gathers variants with a substitution at E61 (VL, numbered from residue 1). Affinities are written as log10 Kd with Kd in nM; a lower number is a better binder. The mean shown is taken over the replicates in which the pair was detected. An entry "nd" has no value in the source: the pair was not observed among the diploids in any replicate. This suggests poor binding but is not conclusive. Parent in this assay: reference entry 0.65, copy in this library 1.68. As a blank, each scFv also met three strains without target: over library AAYL50, 18% of these pairings were detected, typically at 4.19 and seldom below 2.99.

The variant KSNQSVLYESRNKNSVA / WASTRRS / QQYHRPPLS showed nd (0 of 3 replicates).
The variant KSSQSVLYESRNKNSVA / WAVTRNS / QQYHRLPLS showed nd (0 of 3 replicates).
The variant KSSQSVLYESRNKNSVA / WASTRCS / QQYHRLPLS showed nd (0 of 3 replicates).
The variant KSSQSVLYESRNKNCVA / WASTRPS / QTYHRLPLS showed nd (0 of 3 replicates).
The variant KSSQSVLYESRNKNSVA / WARTRVS / HQYHRLPLS showed 2.19 (3 of 3 replicates).
The variant KSSQSCLYESRNKNSVA / WASTRIS / QQYHRLPLL showed 2.34 (3 of 3 replicates).
The variant KSSQSVLYESRNKMSVA / WASTRSS / QSYHRLPLS showed 3.46 (1 of 3 replicates).
The variant KVSQSVLYESRNKNSVA / WASTRPS / QQYHRLPLS showed 1.18 (3 of 3 replicates).
The variant KSSQDVLYESRNKNSVA / WASTRWS / QQYHRLPLP showed 1.53 (3 of 3 replicates).
The variant KSSQSVLYESRHKNSVA / WASTRTS / KQYHRLPLS showed 3.61 (1 of 3 replicates).
The variant KSSQSVLYESRNHNSVA / CASTRVS / QQYHRLPLS showed 2.38 (3 of 3 replicates).
The variant KSSQSVLYESRNKNSVA / WASTRWF / QQYHRDPLS showed 4.61 (1 of 3 replicates).
The variant KSSQSVLYESRNKNSQA / QASTRQS / QQYHRLPLS showed 3.37 (2 of 3 replicates).
The variant KSSQSVLKESRNKNSVA / WASTRGS / QQYHILPLS showed 2.96 (3 of 3 replicates).
The variant KSSQSVLYESRNVNSVA / WASTRAS / QQYHRLPLS showed 1.13 (3 of 3 replicates).
The variant KSSQSVLYMSRNGNSVA / WASTRDS / QQYHRLPLS showed 3.83 (3 of 3 replicates).
The variant KSSQSVCYESRNKNSVA / WASTRYS / QQGHRLPLS showed 3.74 (1 of 3 replicates).
The variant KSSQSVLYESRNKNSVA / WASTQAS / QQYHRLPNS showed nd (0 of 3 replicates).
The variant PSSQSVLYESRNKNSVA / WASTRGS / YQYHRLPLS showed 2.80 (1 of 3 replicates).
The variant KSSQSVLFESRNKNSVA / WASTRRS / QQYHTLPLS showed 2.56 (3 of 3 replicates).
The variant KSSQSVLYESRNKNSVP / WASTRMS / QQYHRLPLS showed nd (0 of 3 replicates).
The variant KCSQSVLYESRNGNSVA / WASTRSS / QQYHRLPLS showed 0.59 (3 of 3 replicates).
The variant KSSQSVLYESRNKNSVA / WASVRRS / QQYHRLPLS showed nd (0 of 3 replicates).
The variant KSSQSVLYESRNKNSVA / WASTRVS / QQRHRLPLS showed 1.22 (3 of 3 replicates).
The variant KSSQSVLTESRNKNSVA / WASTRMS / NQYHRLPLS showed nd (0 of 3 replicates).
The variant KSSQSVLYESRNKNSVA / WAFTRLS / QQYHRLPSS showed nd (0 of 3 replicates).
The variant KSSQSVLYESRNKNSVA / WASTRNS / QQFHRCPLS showed 0.91 (3 of 3 replicates).
The variant KSSQSVLYESITKNSVA / WASTRKS / QQYHRLPLS showed 2.57 (3 of 3 replicates).
The variant KSSQSVLYESRNKNSHA / WASTRGW / QQYHRLPLS showed 5.17 (2 of 3 replicates).
The variant KSSQSVLYESRNKNNVA / WAVTRTS / QQYHRLPLS showed nd (0 of 3 replicates).
The variant PSSQSVLYESRNKNMVA / WASTRKS / QQYHRLPLS showed nd (0 of 3 replicates).
The variant KSSESVLYGSRNKNSVA / WASTRFS / QQYHRLPLS showed 0.93 (3 of 3 replicates).
The variant NSSQSVLYESRNKNSVA / WASTWAS / QQYHRLPLS showed nd (0 of 3 replicates).
The variant KSSQSVLYESRNKNSVA / WARTRDS / QQYHGLPLS showed 4.48 (1 of 3 replicates).
The variant KSSQSVLYESRNKNSVA / WASTRGS / QQYHRLPLS showed 1.54 (3 of 3 replicates).
The variant KSAQSVLYESRNKNSVA / WASTRFS / QQYERLPLS showed 1.34 (3 of 3 replicates).
The variant KSSQSVLYESRNGNSVA / WPSTRFS / QQYHRLPLS showed 4.40 (2 of 3 replicates).
The variant KSSQSVLYESRNKNSVA / WASTRHD / QQYHKLPLS showed 0.92 (3 of 3 replicates).
The variant KSSQSVLYNSRNKISVA / WASTRLS / QQYHRLPLS showed 3.15 (2 of 3 replicates).
The variant KDSQSVLYESRNKKSVA / WASTRIS / QQYHRLPLS showed 1.22 (3 of 3 replicates).
The variant KSMQSVLYESRNKNSVA / WASTRYQ / QQYHRLPLS showed 0.93 (3 of 3 replicates).
The variant WSSQSVLYESWNKNSVA / WASTRWS / QQYHRLPLS showed nd (0 of 3 replicates).
The variant KSSQSVLYESTNKNSVA / WASTRTS / QQYHRRPLS showed 0.95 (3 of 3 replicates).
The variant KSSQSVLYESRNKNSVA / WASWRFS / QQYSRLPLS showed nd (0 of 3 replicates).
The variant KSSQSVLYESRNKNSVA / WANTRWC / QQYHRLPLS showed 4.52 (1 of 3 replicates).

Top 3 of the variants detected in all replicates, tightest first:

CDR-L1,CDR-L2,CDR-L3,"log10 Kd (nM), mean",replicates with signal
KCSQSVLYESRNGNSVA,WASTRSS,QQYHRLPLS,0.59,3/3
KSSQSVLYESRNKNSVA,WASTRNS,QQFHRCPLS,0.91,3/3
KSSQSVLYESRNKNSVA,WASTRHD,QQYHKLPLS,0.92,3/3